Experimental data from patent US10189782B2, “Derivatives of indole for the treatment of cancer, viral infections and lung diseases” (BIOKINESIS, priority 2012, dated 2019).

Sequences of proteins named here, by UniProt entry; tags and fusion partners are left off. Residues count along the entry.
UniProt O95235, 1-519 limits assumed: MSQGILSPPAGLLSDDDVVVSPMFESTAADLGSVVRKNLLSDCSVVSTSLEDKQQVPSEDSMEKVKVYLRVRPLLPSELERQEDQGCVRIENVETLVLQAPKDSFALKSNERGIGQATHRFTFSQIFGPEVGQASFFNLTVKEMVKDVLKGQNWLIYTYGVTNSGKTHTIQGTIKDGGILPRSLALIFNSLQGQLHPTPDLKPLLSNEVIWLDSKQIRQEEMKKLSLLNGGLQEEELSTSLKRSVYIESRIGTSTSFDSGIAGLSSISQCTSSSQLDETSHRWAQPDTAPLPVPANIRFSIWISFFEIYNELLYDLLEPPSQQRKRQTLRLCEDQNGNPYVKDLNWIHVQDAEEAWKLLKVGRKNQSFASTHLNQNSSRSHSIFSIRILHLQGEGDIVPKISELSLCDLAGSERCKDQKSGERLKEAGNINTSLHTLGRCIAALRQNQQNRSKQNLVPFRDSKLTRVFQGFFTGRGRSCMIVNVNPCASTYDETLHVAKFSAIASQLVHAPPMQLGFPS

Experiments:
K562 cells = assay: Cytotoxicity on human cancer cells (WST-1), K562; conditions: read-out: K562 IC50, Table 6 (prodrugs, formula II), WST-1 on D4
Method: Evaluation of Cytotoxicity Effects on Human Cancer Cells
The effects of the compounds of the invention on the viability of human cancer cells were studied on various human cancer cell lines of differing tissue origins (A549, NCI-H460: lung cancer; MDA-MB-231: breast cancer; HCT-116, HT-29: colon cancer; MIA-PaCa-2: pancreatic cancer; K562: leukaemia). All cell lines were obtained from ATCC or ECACC. Cells were cultured in the culture media described below, under a 37° C., 5% CO2 humidified atmosphere, according to a standard operating procedure.
On D0, the cells were plated in 90 μl in 96 wells plates at densities ranging from 500 to 5,000 cells per well.
Following addition of the test substance the cells were protected from light. The solvents (DMSO and specific control solvent were added at the maximal concentration: 10 μl/well (3 wells/condition)).
On D4, the Cell Proliferation Reagent WST-1 was added to each well (10 μl/well), according to a standard operating procedure. The cells were then incubated for 30 min to 4 h at 37° C.-5% CO2. After these incubations, the 96-well plates were shaken thoroughly for 1 min with Multiskan® EX apparatus (Thermo Labsystems, France). The absorbence was measured at 450 nm, the reference wavelength being 620 nm. […]

[1] = target: Human recombinant MKlp2 motor domain1-519, His tagged (Homo sapiens, UniProt O95235); assay: Microtubule stimulated ATPase activity of the MKlp2 motor domain (Kinesin ELIPA Assay Kit); conditions: read-out: MKIp2 IC50, Table 6 (prodrugs, formula II)

Question: With `COc1ccncc1/C=C(\C#N)c1cn(C(=O)CN(C)C)c2ccc(Br)cc12` as the compound, how does the IC50 (K562 cells) read?
Answer: 330 nM

Question: And the IC50 [1]?
Answer: 400 nM
